Experimental data published in patent US10259823B2, “GLP-1 receptor modulators” (Celgene International II SÀRL, priority 2013, dated 2019).

The chains behind the UniProt entries cited, without tags or fusion partners. Residues count along the entry.
UniProt P43220, 24-463 limits assumed: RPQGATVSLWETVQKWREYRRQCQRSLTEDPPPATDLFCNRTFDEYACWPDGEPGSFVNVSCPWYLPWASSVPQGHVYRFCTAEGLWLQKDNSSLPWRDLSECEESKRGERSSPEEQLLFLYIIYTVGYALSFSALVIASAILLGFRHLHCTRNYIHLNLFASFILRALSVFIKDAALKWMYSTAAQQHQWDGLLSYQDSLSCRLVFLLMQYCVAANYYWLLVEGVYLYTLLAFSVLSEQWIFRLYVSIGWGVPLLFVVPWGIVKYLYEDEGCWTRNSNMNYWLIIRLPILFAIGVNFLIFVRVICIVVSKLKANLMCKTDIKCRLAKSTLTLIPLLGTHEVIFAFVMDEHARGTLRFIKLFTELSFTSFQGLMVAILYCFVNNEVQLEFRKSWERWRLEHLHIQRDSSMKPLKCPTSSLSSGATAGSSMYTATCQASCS
UniProt P01275, 100-127 partner limits assumed: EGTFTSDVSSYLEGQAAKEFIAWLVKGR

Target: GLP-1R (Homo sapiens, UniProt P43220)
Experiment: EC20 GLP-1(9-36) PAM cAMP assay: dose response of compound in the presence of fixed concentration of GLP-1(9-36)
Details: read-out: EC20 GLP-1(9-36) PAM EC50, GLP-1R CRE-bla CHO-K1 cells, compound dose response with fixed GLP-1(9-36), 30 min at 37° C.
Experimental: EC20 GLP-1(9-36) PAM cAMP assay: dose response of compound in the presence of fixed concentration of GLP-1 (9-36).
GLP-1R CRE-bla CHO-K1 cells cultured in growth medium (DMEM-High glucose, 10% dialyzed FBS, 0.1 mM NEAA, 25 mM Hepes, 100 U/mL penicillin/100 μg/mL streptomycin, 5 μg/mL Blasticidin, 600 μg/mL Hygromycin) were trypsinized and plated in suspension into 384 well white flat bottom plates at 5000 cells/well in 12 μL assay buffer (Hanks Balanced Salt solution, 10 mM hepes, 0.1% BSA, pH 7.4). A 5× compound dose response curve (12-point) was generated in assay buffer containing 1.5 mM IBMX, 4% DMSO. GLP-1(9-36) was diluted to 4.2 μM in assay buffer containing 1.5 mM IMBX and 4% DMSO. The 5× compound dose response was added (3 μL), followed by 0.5 μL of GLP-1(9-36) and cells were incubated for 30 min at 37° C. Direct detection of cAMP was carried out using DiscoveRx HitHunter cAMP kit according to manufacturer's instructions and luminescence was read using a SpectraMax M5 plate reader. Luminescence was converted to total cAMP using a cAMP standard curve and data was analyzed by non-linear regression to determine the EC50 and Emax.
GLP-1(7-36): […]-NH2 (SEQ ID NO: GLP-1(9-36): […]-NH2(SEQ ID NO: 3) GLP-1(7-36) was purchased from GenScript. GLP-1(9-36) was purchased from Biopeptide Co., Inc.

`CC(C)(C)c1ccc(C(=O)N[C@@H](Cc2ccc(-c3ncc(-c4ccc5c(c4)CCCN5)cn3)cc2)C(=O)O)cc1` was tested, and the EC50 was 5 to 10 µM.
